Measurements as given in paper PMC3996367, “Profiling of drugs and environmental chemicals for functional impairment of neural crest migration in a novel stem cell-based test battery” (Archives of Toxicology, 2014).
Where two headings read alike, the source gives them in different places.

Tests used:
[1] = tested on: migration of hESC-derived neural crest cells (NCC); test: MINC assay (migration inhibition of neural crest cells, UKN2); settings: 48 h
[2] = tested on: pregnant cynomolgus monkeys; settings: cited from earlier work; for Dose showing developmental toxicity: ref US FDA report
[3] = parameters: method as in Yung et al. [1991]; settings: ref Yung et al. [1991]; cited from earlier work

interferon β [IFNβ]
Effect on NCC migration in concentration-response study ([1]; in a non-cytotoxic concentration range): concentration-dependent effect
Hit classification in the MINC screen ([1]; highest non-cytotoxic concentration, hit = ≥25 % reduction in NCC migration with ≤10 % cytotoxicity): hits
Dose showing developmental toxicity ([2]; GD90 to term, assuming 22.5 kDa): 33 pmol/kg/day
Dose showing developmental toxicity ([2]; gestational day 90 to term (GD160)): 740 ng/kg/day
Dose increasing spontaneous abortions and/or fetal loss ([2]; intramuscular, GD90 through term, ref US FDA (1999)): 0.033 nmol IFN-β/kg/day
Higher concentrations reached upon i.v. bolus injections, relative to 1.9-3 pM [3]: About 100 fold
